## Yeast mating assay 1: variants of the scFv Ab-14

Data: MIT Lincoln Laboratory AlphaSeq set, Engelhart et al. 2022, doi:10.1038/s41597-022-01779-4, as distributed in FLAb.

Binding partner: SARS-CoV-2 spike HR2 peptide, sequence PDVDLGDISGINAS.

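The parent was found by panning a naive human phage display library on the peptide. The library (AAYL49) carries one to three amino acid substitutions per variant, with no insertions or deletions. Affinity was read by AlphaSeq, a pooled yeast mating assay with surface-displayed partners. Pairs that bind mate more often; barcode pairs of the diploids are counted by sequencing. The ratio of observed to expected reads was calibrated, replicate by replicate, on BCL2-family standards whose Kd was known from biolayer interferometry. Mating was done three times.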

Parent: Ab-14, a human scFv built as VH, three GGGGS repeats, VL. Only the CDRs of the heavy chain vary.
VH: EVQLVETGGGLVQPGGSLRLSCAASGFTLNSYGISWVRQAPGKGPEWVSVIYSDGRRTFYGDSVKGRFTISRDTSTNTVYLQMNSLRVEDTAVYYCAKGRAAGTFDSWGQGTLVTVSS
VL: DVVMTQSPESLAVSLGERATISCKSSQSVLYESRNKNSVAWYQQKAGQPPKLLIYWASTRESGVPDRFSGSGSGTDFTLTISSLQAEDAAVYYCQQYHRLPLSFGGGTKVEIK

Substitutions are numbered in sequence along the VH above, starting at 1 (not Kabat). Each Kd is an estimate from the mating assay, the geometric mean of the replicates in which the pair was seen; lower is stronger. "no signal" means that the variant was in the library but no mating with the target was seen in any replicate; the authors take this as a sign of poor binding, and no number exists.

changes	apparent Kd	replicates with signal
F27M N30H V50Q	13 µM	1 of 3
V50L I51M V64W	290 µM	1 of 3
S31Y S53N F105V	no signal	0 of 3
D54Q R57S	3.3 µM	1 of 3
T28W T58D G99H	21 µM	2 of 3
G26C S53N G55T	no signal	0 of 3
Y32S Y52P	23 µM	1 of 3
N30E I34D Y60P	no signal	0 of 3
F27H R57Q A102G	no signal	0 of 3
T28L N30H Y60A	150 µM	2 of 3
N30T S35P A102P	10 µM	2 of 3
F27M Y52V R100N	2.8 µM	1 of 3
T28C S35L D62Q	no signal	0 of 3
G55F S63L	12 µM	2 of 3
F27L D106K S107T	3.6 µM	1 of 3
T28C G99R A102M	no signal	0 of 3
D62L G99E A102E	no signal	0 of 3
T28P S53P F59S	9.9 nM	3 of 3
I51G G55E F59K	no signal	0 of 3
F27C G33A K65M	no signal	0 of 3
I51K G55M R57E	no signal	0 of 3
I34A F105T	no signal	0 of 3
V50S I51V S63V	no signal	0 of 3
F27N S31P I34L	25 µM	1 of 3
I34N K65I	no signal	0 of 3
G33P S53G G55P	910 µM	1 of 3
Y52H K65I G99S	no signal	0 of 3
S53A R56T T58P	no signal	0 of 3
G33T G99I G103L	82 µM	1 of 3
G33T I51F G103F	810 nM	1 of 3

Further variants, results first:

apparent Kd	replicates with signal	changes
1.2 µM	1 of 3	S31W D54H
5.5 nM	3 of 3	F27E Y52T D106Q
38 µM	1 of 3	R57P F59N G103Q
4.0 µM	1 of 3	R57W G103I T104D
1.0 µM	3 of 3	T28R T58D
4.7 nM	3 of 3	T28S S31V A101W
no signal	0 of 3	G55K F105K
550 nM	2 of 3	T28S S53I A101N
100 µM	2 of 3	G26Y Y60S V64W
no signal	0 of 3	V50M F59H T104E
75 µM	3 of 3	F27C I34L F59K
no signal	0 of 3	S35E D62I G103V
no signal	0 of 3	S31H G33H S63C
9.7 µM	1 of 3	S31C G33Y D62A
19 µM	1 of 3	G55H R56N G103S
no signal	0 of 3	S35G K65E F105N
8.6 µM	2 of 3	F27H T104A S107Y
530 µM	2 of 3	F27S I51Y F105A
170 µM	1 of 3	G26K Y60H F105N
no signal	0 of 3	T28R Y60E A101K
69 nM	3 of 3	N30R S63N D106T
1.8 µM	2 of 3	S35A A102P
3.7 µM	1 of 3	R56M V64T F105Q
650 µM	2 of 3	F59M G99A
no signal	0 of 3	I51S A102F
no signal	0 of 3	L29K Y32C T58K
100 nM	3 of 3	Y32F R56S D106W
no signal	0 of 3	S53F A102N T104C
no signal	0 of 3	D54P A101Q
140 µM	2 of 3	T28N I51T G103I

The opening 3 entries, copied out:

changes	apparent Kd	replicates with signal
F27M N30H V50Q	13 µM	1 of 3
V50L I51M V64W	290 µM	1 of 3
S31Y S53N F105V	no signal	0 of 3

In this assay the parent's reference entry averaged 4.4 nM; its copy inside this library read 13 µM (one replicate of three). Background: pairings of library AAYL49 with three empty control strains gave a value in 15% of cases (median 11 µM, 5th percentile 680 nM). Values in that range, when seen in few replicates, are hard to tell from nonspecific mating.